Key:
Arabidopsis HPPD = target: T1, Arabidopsis HPPD (Arabidopsis thaliana, UniProt P93836); experiment: kon from assay based measurements of the rate of activity loss; assay type: biochemical
T1 construct: made in house; host or cells: E. coli BL21 (DE3) codon+ RP
T1 sequence (P93836 1-445): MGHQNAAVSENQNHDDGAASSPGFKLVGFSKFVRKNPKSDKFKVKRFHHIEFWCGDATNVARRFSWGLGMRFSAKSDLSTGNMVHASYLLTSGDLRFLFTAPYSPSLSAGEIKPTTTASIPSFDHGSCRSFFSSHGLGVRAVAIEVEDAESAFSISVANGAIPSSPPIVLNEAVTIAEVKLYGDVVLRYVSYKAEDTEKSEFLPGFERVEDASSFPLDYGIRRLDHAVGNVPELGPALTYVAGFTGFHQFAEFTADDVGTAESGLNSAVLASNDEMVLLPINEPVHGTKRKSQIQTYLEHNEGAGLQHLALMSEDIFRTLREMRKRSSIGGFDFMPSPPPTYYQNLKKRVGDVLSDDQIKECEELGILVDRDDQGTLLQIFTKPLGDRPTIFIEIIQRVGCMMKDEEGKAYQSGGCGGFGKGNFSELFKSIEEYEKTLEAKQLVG
From the text: Firstly HPLC assays monitoring the formation of HGA at various times are run as described the preceding example 9. Even in the absence of added inhibitors, progress curves are not linear reflecting progressive inactivation of the enzyme under assay conditions. At increasing concentrations of inhibitor the curvature becomes much more marked. […]
In a more direct assay-based method for measuring kon values, test HPPD enzyme is reacted with inhibitor for a range of times and then the inhibition reaction is effectively stopped by addition of a high concentration of the (competitive) substrate HPP. […] Note that, because the initial, fast, reaction of inhibitors with HPPD which results in complete loss of activity is with only half the sites ultimately measurable by binding stoichiometry, the relevant enzyme concentration here for simulation and for calculation of rate constants is half the enzyme concentration as measured in long-term titration binding studies as described above. […]

dicot plants = experiment: Herbicidal activity versus dicot plants averaged over 6 or more species; conditions: in vivo
From the text: Activity versus dicot plants refers here to herbicidal activity averaged over a range of 6 or more of those dicot weed and crop species usually used in screens used for compound discovery in the agrochemical community. Herbicidal activity versus dicot plants also refers here to that activity which is due to the inhibitor per se rather than due to some, potentially more herbicidal, metabolite of it which may be formed in planta or otherwise.

Row | SMILES | kon (Arabidopsis HPPD) [M⁻¹ s⁻¹] | herbicidal activity versus dicot plants relative to mesotrione (dicot plants)
1 | CS(=O)(=O)c1ccc(C(=O)C2C(=O)CCCC2=O)c([N+](=O)[O-])c1 [Structure I, 2-(Nitro-4-methanesulphonylbenzoyl)-cyclohexane-1,3-dione] | 250000 | 
2 | Cc1cc(C#N)ccc1C(=O)C1C(=O)C(C)(C)C(=O)C(C)(C)C1=O [Structure VI, 2-[2-methyl-4-cyanobenzoyl]-4,4,6,6-tetramethylcyclohexane-1,3,5-trione] |  | at least a quarter of the herbicidal activity of mesotrione
